Legend:
RAW 264.7 cells = experiment: Atlas polynucleotide arrays of RAW 264.7 cells stimulated with LPS, LTA or CpG DNA (Tables 57, 58); details: S. typhimurium LPS 100 ng/ml, S. aureus LTA 1 μg/ml, CpG 1 μM; 4 h
[1] = test system: human A549 epithelial cells; experiment: Resgen Human cDNA arrays (PRHU03-S3) of A549 cells treated with peptide (Tables 21-26)

In the case of “5′-TCATGACGTTCCTGACGTT-3′ (chemistry not given here) [CpG]”, the “Ratio to Contrl, CACCC Box-binding protein BKLF (U36340)” value (RAW 264.7 cells) is reported as 7, the “Ratio to Contrl, CD7 (D10329)” value (RAW 264.7 cells) is reported as 2 and the “Ratio to Contrl, CD40L receptor (M83312)” value (RAW 264.7 cells) is reported as 57. For the same compound, the “Ratio to Contrl, CRE-BPI (S76657)” value (RAW 264.7 cells) was 7, the “Ratio to Contrl, Cyclin A1 (X84311)” value (RAW 264.7 cells) was 2 and the “Ratio to Contrl, Cyclin G2 (U95826)” value (RAW 264.7 cells) was 2. The “Ratio to Contrl, Elk-1 (X87257)” value (RAW 264.7 cells) was 1, the “Ratio to Contrl, Fas 1 receptor (M83649)” value (RAW 264.7 cells) was 42 and the “Ratio to Contrl, H-ras proto-oncopolynucleotide (Z50013)” value (RAW 264.7 cells) was 5. For the same compound, the “Ratio to Contrl, ICAM-1 (X52264)” value (RAW 264.7 cells) was 9, the “Ratio to Contrl, Jun-B (J03236)” value (RAW 264.7 cells) was 14 and the “Ratio to Contrl, Jun-D (J05205)” value (RAW 264.7 cells) was 20. For the same compound, the “Ratio to Contrl, Leukemia inhibitory factor (LIF) (X06381)” value (RAW 264.7 cells) was 102, the “Ratio to Contrl, Mad related protein (U60530)” value (RAW 264.7 cells) was 3 and the “Ratio to Contrl, Nur77 (J04113)” value (RAW 264.7 cells) was 3. For the same compound, the “Ratio to Contrl, Pim-1 (M13945)” value (RAW 264.7 cells) was 2, the “Ratio to Contrl, Protease nexin 1 (PN-1) (X70296)” value (RAW 264.7 cells) was 22 and the “Ratio to Contrl, hepatocyte growth factor (X72307)” value (RAW 264.7 cells) was 1.0. For the same compound, the “Ratio to Contrl, hepatoma transmembrane kinase ligand (L38847)” value (RAW 264.7 cells) was 1.0, the “Ratio to Contrl, interferon inducible protein 1 (U19119)” value (RAW 264.7 cells) was 4 and the “Ratio to Contrl, thrombopoietin (L34169)” value (RAW 264.7 cells) was 0.5. The “Ratio to Control, B-myb (X70472)” value (RAW 264.7 cells) was 0.5, the “Ratio to Control, CD14 (M34510)” value (RAW 264.7 cells) was 1.4 and the “Ratio to Control, CD18 (X14951)” value (RAW 264.7 cells) was 2. The “Ratio to Control, DNA polymerase (Z21848)” value (RAW 264.7 cells) was 0.6, the “Ratio to Control, I-κB (alpha subunit) (U36277)” value (RAW 264.7 cells) was 2.7 and the “Ratio to Control, ICE (L28095)” value (RAW 264.7 cells) was 50. The “Ratio to Control, IL-1β (M15131)” value (RAW 264.7 cells) was 55, the “Ratio to Control, IL-15 (U14332)” value (RAW 264.7 cells) was 12 and the “Ratio to Control, MAPKAP-2 (X76850)” value (RAW 264.7 cells) was 2.5. For the same compound, the “Ratio to Control, MIP-1α (X12531)” value (RAW 264.7 cells) was 26, the “Ratio to Control, MIP-1β (M35590)” value (RAW 264.7 cells) was 58 and the “Ratio to Control, MIP-2α (X53798)” value (RAW 264.7 cells) was 78. For the same compound, the “Ratio to Control, NF-2 (X60671)” value (RAW 264.7 cells) was 2.8, the “Ratio to Control, NF-κB (M57999)” value (RAW 264.7 cells) was 3.4 and the “Ratio to Control, Stat 1 (U06924)” value (RAW 264.7 cells) was 3.2. For the same compound, the “Ratio to Control, TGFβ (X57413)” value (RAW 264.7 cells) was 28, the “Ratio to Control, TNFR1 (M59378)” value (RAW 264.7 cells) was 11 and the “Ratio to Control, TRAIL (U37522)” value (RAW 264.7 cells) was 6. For the same compound, the “Ratio to Control, c-Fms (X68932)” value (RAW 264.7 cells) was 0.5, the “Ratio to Control, c-rel proto-oncopolynucleotide (X15842)” value (RAW 264.7 cells) was 15 and the “Ratio to Control, iNOS (M87039)” value (RAW 264.7 cells) was 45. The “Ratio to Control, tristetraprolin (M57422)” value (RAW 264.7 cells) was 90 and the “Ratio to Control, vimentin (X51438)” value (RAW 264.7 cells) was 2.0.
`CC[C@H](C)[C@H](N)C(=O)N[C@@H](CC(C)C)C(=O)N1CCC[C@H]1C(=O)N[C@@H](Cc1c[nH]c2ccccc12)C(=O)N[C@@H](CCCCN)C(=O)N[C@@H](Cc1c[nH]c2ccccc12)C(=O)N1CCC[C@H]1C(=O)N[C@@H](Cc1c[nH]c2ccccc12)C(=O)N[C@@H](Cc1c[nH]c2ccccc12)C(=O)N1CCC[C@H]1C(=O)N[C@@H](Cc1c[nH]c2ccccc12)C(=O)N[C@@H](CCCNC(=N)N)C(=O)N[C@@H](CCCNC(=N)N)C(N)=O` [SEQ ID NO: 2] was tested, and the “Ratio Peptide:Unstimulated, cadherin, EGF LAG seven-pass. G-type receptor 2, flamingo (Drosophila) homolog” value [1] was 0.42.

Reference: patent US20070134261A1, “Effectors of innate immunity” (priority 2001, published 2007)
